experiment: Dissociation constant, pKa of the compound

Row | Structure (SMILES) | pKa
1 | CCCCCCOC[n+]1cccc(/C=N/O)c1.[Cl-] | 9.27
2 | CCCCCCOC[n+]1ccc(/C=N/O)cc1.[Cl-] | 8.2
3 | Cc1ccc(COC[n+]2ccc(/C=N/O)cc2)cc1.[Cl-] | 8.23
4 | CCCCCCCCCCOC[n+]1ccc(/C=N/O)cc1.[Cl-] | 8.17
5 | CCCCCCCCCOC[n+]1cccc(/C=N/O)c1.[Cl-] | 9.41
6 | CCCCCCCCOC[n+]1cccc(/C=N/O)c1.[Cl-] | 9.25
7 | CCCCCCCCCCCOC[n+]1cccc(/C=N/O)c1.[Cl-] | 9.23
8 | O/N=C/c1cc[n+](COCc2ccccc2)cc1.[Cl-] | 8.25
9 | CCCCCCCOC[n+]1cccc(/C=N/O)c1.[Cl-] | 9.24
10 | CCCCCCCCOC[n+]1ccc(/C=N/O)cc1.[Cl-] | 8.21
11 | CCCCCCCCCCOC[n+]1cccc(/C=N/O)c1.[Cl-] | 9.25
12 | CCCCCCCOC[n+]1ccc(/C=N/O)cc1.[Cl-] | 8.22
13 | CCCCCCCCCOC[n+]1ccc(/C=N/O)cc1.[Cl-] | 8.15
14 | CCCCCCCCCCCCOC[n+]1ccc(/C=N/O)cc1.[Cl-] | 8.23
15 | CCCCCCCCCCCCOC[n+]1cccc(/C=N/O)c1.[Cl-] | 9.17
16 | Cc1ccc(COC[n+]2cccc(/C=N/O)c2)cc1.[Cl-] | 9.14
17 | CCCCCCCCCCCOC[n+]1ccc(/C=N/O)cc1.[Cl-] | 8.2
18 | O/N=C/c1ccc[n+](COCc2ccccc2)c1.[Cl-] | 9.25

Reference: ChEMBL document CHEMBL3044855, “In vitro reactivation of organophosphorus (OP)-inhibited electric eel acetylcholinesterase by novel monoquaternary pyridinium oximes” (2013)
